{"sequences": {"note": "Sequences of proteins named here, by UniProt entry; tags and fusion partners are left off. A change or cut given only in a name is not applied to a line headed by its entry.", "UniProt P42336, whole entry": "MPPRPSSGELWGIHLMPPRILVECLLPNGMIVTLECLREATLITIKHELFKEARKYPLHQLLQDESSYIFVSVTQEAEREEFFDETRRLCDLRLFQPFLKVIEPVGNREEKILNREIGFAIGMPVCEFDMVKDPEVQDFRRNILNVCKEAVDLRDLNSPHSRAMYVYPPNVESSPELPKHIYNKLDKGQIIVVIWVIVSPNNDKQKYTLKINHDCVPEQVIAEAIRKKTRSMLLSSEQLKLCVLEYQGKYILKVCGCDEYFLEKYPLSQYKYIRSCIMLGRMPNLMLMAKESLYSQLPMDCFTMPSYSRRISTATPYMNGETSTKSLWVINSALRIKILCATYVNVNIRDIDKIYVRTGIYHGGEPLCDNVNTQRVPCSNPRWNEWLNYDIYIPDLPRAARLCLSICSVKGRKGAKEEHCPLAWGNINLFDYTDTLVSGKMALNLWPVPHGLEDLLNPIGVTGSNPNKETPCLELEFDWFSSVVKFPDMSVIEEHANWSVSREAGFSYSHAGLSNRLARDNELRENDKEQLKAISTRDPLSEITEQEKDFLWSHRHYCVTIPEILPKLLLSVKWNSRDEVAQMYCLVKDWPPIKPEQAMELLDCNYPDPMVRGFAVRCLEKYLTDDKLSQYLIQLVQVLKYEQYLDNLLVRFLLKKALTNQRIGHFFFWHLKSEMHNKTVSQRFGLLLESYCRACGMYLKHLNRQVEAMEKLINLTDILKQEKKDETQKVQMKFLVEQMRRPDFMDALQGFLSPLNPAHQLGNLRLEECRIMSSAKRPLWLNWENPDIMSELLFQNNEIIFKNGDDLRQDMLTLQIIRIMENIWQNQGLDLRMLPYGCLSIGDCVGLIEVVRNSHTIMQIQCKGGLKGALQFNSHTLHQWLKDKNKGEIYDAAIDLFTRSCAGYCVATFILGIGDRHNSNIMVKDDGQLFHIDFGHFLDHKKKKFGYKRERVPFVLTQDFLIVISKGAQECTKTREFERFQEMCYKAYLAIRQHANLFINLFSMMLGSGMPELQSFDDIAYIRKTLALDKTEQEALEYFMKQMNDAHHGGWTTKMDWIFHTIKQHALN", "UniProt O00329": "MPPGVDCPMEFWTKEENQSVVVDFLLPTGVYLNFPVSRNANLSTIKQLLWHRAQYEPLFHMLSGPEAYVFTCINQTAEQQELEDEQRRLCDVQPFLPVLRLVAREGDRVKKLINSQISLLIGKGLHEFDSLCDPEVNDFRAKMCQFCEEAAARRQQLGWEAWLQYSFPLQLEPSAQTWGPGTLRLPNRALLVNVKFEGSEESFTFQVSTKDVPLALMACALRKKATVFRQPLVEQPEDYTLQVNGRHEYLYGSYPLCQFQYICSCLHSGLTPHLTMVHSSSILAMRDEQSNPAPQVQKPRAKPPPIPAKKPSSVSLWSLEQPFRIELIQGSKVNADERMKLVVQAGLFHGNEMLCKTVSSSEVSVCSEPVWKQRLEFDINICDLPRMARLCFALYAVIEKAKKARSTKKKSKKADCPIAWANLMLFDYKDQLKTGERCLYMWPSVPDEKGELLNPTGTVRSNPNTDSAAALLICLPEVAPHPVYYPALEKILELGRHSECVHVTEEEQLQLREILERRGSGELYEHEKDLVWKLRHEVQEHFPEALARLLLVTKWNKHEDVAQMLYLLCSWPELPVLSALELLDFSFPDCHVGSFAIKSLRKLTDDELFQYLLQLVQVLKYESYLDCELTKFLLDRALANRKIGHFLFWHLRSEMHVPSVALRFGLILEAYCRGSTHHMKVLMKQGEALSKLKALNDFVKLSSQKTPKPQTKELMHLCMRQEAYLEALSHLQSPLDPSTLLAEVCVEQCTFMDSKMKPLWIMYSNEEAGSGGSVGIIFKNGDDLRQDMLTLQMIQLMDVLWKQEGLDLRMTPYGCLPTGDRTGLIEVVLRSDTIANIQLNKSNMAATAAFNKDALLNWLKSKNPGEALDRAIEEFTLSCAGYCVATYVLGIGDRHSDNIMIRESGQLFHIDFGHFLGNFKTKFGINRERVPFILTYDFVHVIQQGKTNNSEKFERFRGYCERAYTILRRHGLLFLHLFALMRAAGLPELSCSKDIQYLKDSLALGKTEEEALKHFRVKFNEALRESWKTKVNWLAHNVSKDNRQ", "UniProt P48736": "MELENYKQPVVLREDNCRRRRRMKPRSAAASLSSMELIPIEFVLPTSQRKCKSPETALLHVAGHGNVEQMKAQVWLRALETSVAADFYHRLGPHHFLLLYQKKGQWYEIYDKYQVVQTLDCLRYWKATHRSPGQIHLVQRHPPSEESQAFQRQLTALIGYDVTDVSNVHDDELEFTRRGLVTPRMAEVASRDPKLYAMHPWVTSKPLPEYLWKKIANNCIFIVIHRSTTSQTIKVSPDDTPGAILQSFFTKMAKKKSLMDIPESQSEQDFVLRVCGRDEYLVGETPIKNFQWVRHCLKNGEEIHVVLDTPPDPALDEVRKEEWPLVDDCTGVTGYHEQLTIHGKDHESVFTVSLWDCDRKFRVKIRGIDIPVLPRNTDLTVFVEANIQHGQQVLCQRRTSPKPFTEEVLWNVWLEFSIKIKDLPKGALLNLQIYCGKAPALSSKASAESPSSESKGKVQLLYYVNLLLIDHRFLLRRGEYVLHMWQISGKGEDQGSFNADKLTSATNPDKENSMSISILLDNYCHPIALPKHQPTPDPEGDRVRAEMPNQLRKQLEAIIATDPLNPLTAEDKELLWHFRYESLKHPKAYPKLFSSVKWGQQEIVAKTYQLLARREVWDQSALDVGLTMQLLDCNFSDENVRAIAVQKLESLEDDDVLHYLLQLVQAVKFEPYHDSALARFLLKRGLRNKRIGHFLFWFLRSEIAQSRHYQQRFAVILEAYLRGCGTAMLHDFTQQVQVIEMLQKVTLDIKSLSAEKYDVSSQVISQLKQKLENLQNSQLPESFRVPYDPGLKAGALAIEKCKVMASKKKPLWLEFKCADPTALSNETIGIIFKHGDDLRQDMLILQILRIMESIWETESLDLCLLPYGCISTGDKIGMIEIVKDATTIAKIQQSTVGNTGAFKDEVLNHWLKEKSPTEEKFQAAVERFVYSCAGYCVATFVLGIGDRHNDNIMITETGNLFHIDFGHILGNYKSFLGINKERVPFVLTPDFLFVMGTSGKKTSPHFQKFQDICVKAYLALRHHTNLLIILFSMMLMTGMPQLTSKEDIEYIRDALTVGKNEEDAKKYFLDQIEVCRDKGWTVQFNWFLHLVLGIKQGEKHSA"}, "source": "patent US9643980B2", "about": "“Benzoxazepin oxazolidinone compounds and methods of use” (Genentech, Inc., priority 2015, dated 2017)", "key": {"PI3Kα [1]": {"target": "T1, PI3Kα (Homo sapiens, UniProt P42336)", "test": "PI3K binding assay (lipid kinase reaction, ADP-Glo), PI3K alpha", "assay_type": "biochemical"}, "PI3Kδ [2]": {"target": "T2, PI3Kδ (Homo sapiens, UniProt O00329)", "details": "read-out: PI3Kδ FP Ki, second value of cell after slash (FP)"}, "PI3Kδ [3]": {"target": "T2, PI3Kδ", "test": "PI3K binding assay (lipid kinase reaction, ADP-Glo), PI3K delta", "assay_type": "biochemical"}, "PI3Kα [4]": {"target": "T1, PI3Kα", "details": "read-out: PI3Kα FP Ki, second value of cell after slash (FP)"}, "PI3Kγ": {"target": "PI3Kγ (Homo sapiens, UniProt P48736)", "test": "PI3K binding assay (lipid kinase reaction, ADP-Glo), PI3K gamma", "assay_type": "biochemical", "details": "Table 2A; first value of cell (ADP-Glo, Example 901)"}, "[5]": {"details": "Table 2A, first value of cell (ADP-Glo, Example 901)"}, "[6]": {"details": "Table 2B comparator compounds, first value of cell (ADP-Glo)"}}, "note": "Read-outs that look alike come from different tables or passages of the source."}
{"smiles": "Cc1nc(-c2cn3c(n2)-c2ccc(-c4cnn(C(C)(C)C(N)=O)c4)cc2OCC3)n(C(C)C)n1", "note": "[taselisib, 2-(4-(2-(1-isopropyl-3-methyl-1H-1,2,4-triazol-5-yl)-5,6-dihydrobenzo[f]imidazo[1,2-d][1,4]oxazepin-9-yl)-1H-pyrazol-1-yl)-2-methylpropanamide, reference compound]", "values": [{"measurement": "Ki", "setting": "PI3Kα [1]; [5]", "result": 0.09, "unit": "nM"}, {"measurement": "Ki", "setting": "PI3Kα [1]; [6]", "result": 0.09, "unit": "nM"}, {"measurement": "Ki", "setting": "PI3Kδ [2]; Table 2A", "result": 0.12, "unit": "nM"}, {"measurement": "Ki", "setting": "PI3Kδ [2]; Table 2B", "result": 0.12, "unit": "nM"}, {"measurement": "Ki", "setting": "PI3Kδ [3]; [5]", "result": 0.079, "unit": "nM"}, {"measurement": "Ki", "setting": "PI3Kδ [3]; [6]", "result": 0.079, "unit": "nM"}, {"measurement": "Ki", "setting": "PI3Kα [4]; Table 2A", "result": 0.29, "unit": "nM"}, {"measurement": "Ki", "setting": "PI3Kα [4]; Table 2B", "result": 0.29, "unit": "nM"}, {"measurement": "Ki", "setting": "PI3Kγ", "result": 1.43, "unit": "nM"}]}
